The list shows a part of the results, in another mix than the full data. Results filed as inconclusive are left out. Active and inactive are the calls of the source.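 How the source made its calls: active means cell viability at or below a set limit in both duplicate runs, the limit being the all-compound median minus 4 SD (cut at about 23% in these data, passing the limit was not always enough); inconclusive means no clear call, values can overlap the other calls; inactive means the rest.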

A short description of this assay: growth suppression of beta-catenin knockout HCT116, pilot screen, human colon tumor cells (AID 823).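 Further: 0% = wells killed by 20 µM Hyamine and 100% = untreated DMSO cell wells.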 Particulars: CellTiter-Glo, 60 h, at 10 µM, active compounds read low. On the technique in general: In ATP-based viability assays light output follows the ATP content of the culture.
As a reminder, the viability is a per cent measure of how many cells are alive, often set against a control. `Fc1ccccc1NC1CCN(Cc2ccccc2)CC1`: the viability was inactive: 83.9%.
